Read-outs that look alike come from different tables or passages of the source.
What was measured:
Parameters in all cases: expressed in transfected cells
CB2 receptor [1] = target: T1, CB2 receptor (Homo sapiens, UniProt P34972); details: previously reported by the applicants (literature refs); read-out: Ki at CB2 receptor; cited from earlier work
CB2 receptor [2] = target: T1, CB2 receptor; experiment: [35S]GTPγS binding in human CB2 receptor-expressing CHO cell membranes; format: biochemical; details: in words
CB2 receptor [3] = target: T1, CB2 receptor; experiment: CB2 assay: displacement of [3H]CP-55,940 from cloned human CB2 receptor preparation (transfected HEK 293 cells); format: binding

Sequences of proteins named here, by UniProt entry; tags and fusion partners are left off.
UniProt P34972, whole entry: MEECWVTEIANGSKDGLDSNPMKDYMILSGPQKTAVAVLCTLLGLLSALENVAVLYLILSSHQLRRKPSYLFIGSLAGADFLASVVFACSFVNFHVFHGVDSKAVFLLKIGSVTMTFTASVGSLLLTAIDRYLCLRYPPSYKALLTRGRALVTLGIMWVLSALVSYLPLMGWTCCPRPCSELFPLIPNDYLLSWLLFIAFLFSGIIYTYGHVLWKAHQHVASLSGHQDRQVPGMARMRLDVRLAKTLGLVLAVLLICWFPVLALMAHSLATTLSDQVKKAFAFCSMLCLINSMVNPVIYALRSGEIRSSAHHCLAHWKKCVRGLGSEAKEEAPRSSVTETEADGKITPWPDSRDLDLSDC

Row | Molecule | Ki (CB2 receptor [1]) | efficacy in the [35S]GTPγS assay relative to CP-55,940 (CB2 receptor [2]) | Ki (CB2 receptor [3])
1 | 1-Methoxy-3-(1′,1′-dimethylhexyl)-Δ^8-THC [Compound 6e] | 0.018 ± 0.002 µM | partial agonists | –
2 | CC(C)(C)c1ccc2c(c1)OC(C)(C)C1CC=C(CO)CC21 (stereo not drawn) [Compound 9a, 1-Deoxy-3-(1′,1′-dimethylethyl)-11-hydroxy-Δ^8-THC] | – | – | 0.018 ± 0.002 µM

— patent US20050009903A1, “CB2-selective cannabinoid analogues” (priority 2003, published 2005)
